Assay [1] has as its target SirT2 (Homo sapiens, UniProt Q8IXJ6). The assay is described as follows: FLuc K529ac-based KDAC assay, inhibition or activation of SirT2 deacetylation. To be noted: read-out: IC50 against SirT2, n=2.
In assay [2] the target is Firefly luciferase (Photinus pyralis, UniProt P08659, N119G/N50D). The assay is described as follows: Direct inhibition of Firefly luciferase (counter-test of FLuc K529ac screen).

The chains behind the UniProt entries cited, without tags or fusion partners. Residues count along the entry.
UniProt Q8IXJ6, 56-356 limits assumed: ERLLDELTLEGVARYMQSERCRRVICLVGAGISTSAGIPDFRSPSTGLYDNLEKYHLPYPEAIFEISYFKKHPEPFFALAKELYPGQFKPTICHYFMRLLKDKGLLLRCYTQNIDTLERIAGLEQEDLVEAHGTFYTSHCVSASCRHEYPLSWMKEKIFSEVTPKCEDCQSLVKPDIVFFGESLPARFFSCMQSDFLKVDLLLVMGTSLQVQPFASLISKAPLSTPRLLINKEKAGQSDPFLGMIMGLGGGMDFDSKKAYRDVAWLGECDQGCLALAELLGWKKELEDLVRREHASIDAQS
UniProt P08659, whole entry N50D/N119G: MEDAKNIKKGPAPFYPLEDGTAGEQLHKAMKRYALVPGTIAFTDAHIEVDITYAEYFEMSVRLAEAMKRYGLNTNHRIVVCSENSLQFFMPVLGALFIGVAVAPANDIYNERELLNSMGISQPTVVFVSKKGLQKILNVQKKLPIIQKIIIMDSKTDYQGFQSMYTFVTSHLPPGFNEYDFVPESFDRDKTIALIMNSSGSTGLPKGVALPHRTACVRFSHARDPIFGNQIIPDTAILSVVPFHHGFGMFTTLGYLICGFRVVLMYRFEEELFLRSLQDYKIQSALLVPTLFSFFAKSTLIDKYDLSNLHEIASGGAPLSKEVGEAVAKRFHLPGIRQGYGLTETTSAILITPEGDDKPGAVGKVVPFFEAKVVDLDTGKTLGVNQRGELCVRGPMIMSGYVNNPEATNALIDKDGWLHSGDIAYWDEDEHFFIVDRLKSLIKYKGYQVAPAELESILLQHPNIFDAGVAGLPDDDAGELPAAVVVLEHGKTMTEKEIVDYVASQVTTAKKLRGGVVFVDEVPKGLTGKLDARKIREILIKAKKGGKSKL

pIC50: −log10 of the molar value. Some results are limits rather than exact numbers.

Turning to `Oc1cc(O)cc(/C=C/c2ccccc2)c1`, in assay [1], the pIC50 (as a rule, −log10 of the IC50, conventionally taken in molar units) was 4.77.
Consider `COc1cc(O)cc(/C=C/c2ccccc2)c1`, for which, in assay [1], the pIC50 was less than 4.52.
Turning to `O=C(NCCCN1CCCC1=O)c1cccc2c3c([nH]c12)CCC3`, the “Direct inhibition of FLuc” value in assay [2] was “direct inhibition of FLuc”. Moreover, the negative-log IC50 (pIC50) in assay [2] (read-out: Firefly luciferase inhibition IC50) was 5.52.
`CN(C)C(=O)c1csc2nc(-c3ccc(NC(=O)c4cccs4)cc3)cn12`: in assay [1], the pIC50 is 4.96.
For the compound `O=C(Nc1ccc(-c2cn3c(C(=O)N4CCOCC4)csc3n2)cc1)c1ccccc1`, the negative-log IC50 (pIC50) in assay [1] was 4.82.

The values above are taken from US20200240995A1, “KDAC VARIANTS AND USES THEREOF” (Max-Planck-Gesellschaft Zur Forderung Der Wissenschaften …, priority 2017, published 2020).
